The assay addresses Mu-type opioid receptor (Rattus norvegicus, UniProt P33535).

Amino acid sequences for entries named in this document (tags omitted).
UniProt P33535, whole entry: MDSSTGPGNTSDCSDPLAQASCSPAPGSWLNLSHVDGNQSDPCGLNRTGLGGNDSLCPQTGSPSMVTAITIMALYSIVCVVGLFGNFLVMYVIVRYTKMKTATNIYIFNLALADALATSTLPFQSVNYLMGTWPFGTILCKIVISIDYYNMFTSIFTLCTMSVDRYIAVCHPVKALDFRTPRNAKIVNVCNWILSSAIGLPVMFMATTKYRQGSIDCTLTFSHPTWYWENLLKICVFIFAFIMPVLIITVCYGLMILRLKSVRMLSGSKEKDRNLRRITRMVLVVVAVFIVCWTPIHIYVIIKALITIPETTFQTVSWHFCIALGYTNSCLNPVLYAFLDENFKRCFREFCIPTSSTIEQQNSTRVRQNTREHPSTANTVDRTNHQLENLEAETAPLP

For orientation: Ki means the equilibrium dissociation constant of an inhibitor or competing ligand from its target. A low value points to a stronger hold on the target.

The structures appear in SMILES notation.

In turn, `C[C@@H](NC(=O)[C@@H](N)Cc1ccc(O)cc1)C(=O)NCC(=O)N(C)[C@@H](Cc1ccccc1)C(=O)NCCO` [[tyrosyl-3,5-3H(N)]-D-Ala2-Mephe4-glyol5-enkephalin] returned a Ki of 1.9 nM.

The values are drawn from BindingDB's records for PubMed 3033464 (Burroughs Wellcome, 1987).
